{"source": "patent US20230148299A1", "about": "“FEM1B PROTEIN BINDING AGENTS AND USES THEREOF” (The Regents Of The University Of California, priority 2020, published 2023)", "test_system": "GFP-Fnip1 degron reporter", "assay": "GFP-Fnip1 degron reporter (GFP/mCherry) by flow cytometry", "type": "cell-based", "conditions": "GFP/mCherry ratio by FACS"}
{"substance": "α-ketoglutarate", "values": [{"measurement": "stability of GFP^degron reporter", "value": "stabilized GFP^degron"}]}
